From patent US20260285847A1, “SYMMETRIC AMINOINDOLE-LINKED TRIAZINE FOR A DUAL EFFECT ON ALPHA-SYNUCLEIN AND TAU ISOFORM 2N4R FIBRILLIZATION” (Purdue Research Foundation, priority 2023, published 2026) come the findings set out here.

Protein sequences, listed by entry. Tags and fused reporters are not part of them. Residues count along the entry.
UniProt P10636, 1-412 isoform P10636-7: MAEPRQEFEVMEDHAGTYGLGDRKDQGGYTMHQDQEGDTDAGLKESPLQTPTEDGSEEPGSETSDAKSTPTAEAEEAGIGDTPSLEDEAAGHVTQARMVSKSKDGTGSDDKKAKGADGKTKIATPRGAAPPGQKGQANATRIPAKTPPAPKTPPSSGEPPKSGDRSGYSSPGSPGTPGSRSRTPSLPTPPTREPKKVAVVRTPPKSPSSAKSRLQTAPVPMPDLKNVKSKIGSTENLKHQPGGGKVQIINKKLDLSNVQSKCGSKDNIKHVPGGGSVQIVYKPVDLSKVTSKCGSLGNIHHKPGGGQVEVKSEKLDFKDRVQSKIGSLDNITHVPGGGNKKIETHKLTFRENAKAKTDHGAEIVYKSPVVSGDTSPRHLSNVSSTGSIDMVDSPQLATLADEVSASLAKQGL

This test has as its target hyperphosphorylated tau (p-tau) isoform 1N4R (Homo sapiens, UniProt P10636). Particulars: p-tau 6 μM.

Read-outs that look alike come from different tables or passages of the source.

Regarding `c1cc(Oc2ncnc(Oc3cccc4[nH]ccc34)n2)c2cc[nH]c2c1` [Compound 7, 4-{[4-(1H-indol-4-yloxy)-1,3,5-triazin-2-yl]oxy}-1H-indole], the “p-tau isoform 1N4R fibril formation (fluorescence intensity, in words)” value is, setting by setting: (compound 48 μM) “did not reduce the fluorescence intensity at the same level than apomorphine”; (compound 98 μM) “did not reduce the fluorescence intensity at the same level than apomorphine”.
Turning to `c1cc(Nc2ncnc(Nc3cccc4[nH]ccc34)n2)c2cc[nH]c2c1` [Compound 10, N2,N4-bis(1H-indol-4-yl)-1,3,5-triazine-2,4-diamine], for the setting “compound 48 μM”, the “p-tau isoform 1N4R fibril formation (fluorescence intensity, in words)” value was “did not reduce the fluorescence intensity at the same level than apomorphine”.
